Where two headings read alike, the source gives them in different places.
Molecular target: EZH2 (Homo sapiens (Human), UniProt Q15910)
Test: PRC2 enzyme assay on peptide substrates
Assay type: biochemical
Excerpt: General Materials. S-adenosylmethionine (SAM), S-adenosylhomocyteine (SAH), bicine, KCl, Tween20, dimethylsulfoxide (DMSO) and bovine skin gelatin (BSG) were purchased from Sigma-Aldrich at the highest level of purity possible. Dithiothreitol (DTT) was purchased from EMD. ^3H-SAM was purchased from American Radiolabeled Chemicals with a specific activity of 80 Ci/mmol. 384-well streptavidin Flashplates were purchased from PerkinElmer.
Substrates. […] The sequences are listed below.
Recombinant PRC2 Enzymes. Human PRC2 enzymes were purified as 4-component enzyme complexes co-expressed in Spodoptera frugiperda (sf9) cells using a baculovirus expression system. The subunits expressed were wild-type EZH2 (NM_004456) or EZH2 Y641F, N, H, S or C mutants generated from the wild-type EZH2 construct, EED (NM_003797), Suz12 (NM_015355) and RbAp48 (NM_005610). The EED subunit contained an N-terminal FLAG tag that was used to purify the entire 4-component complex from sf9 cell lysates.
General Procedure for PRC2 Enzyme Assays on Peptide Substrates. The assays were all performed in a buffer consisting of 20 mM bicine (pH=7.6), 0.5 mM DTT, 0.005% BSG and 0.002% Tween20, prepared on the day of use. […] DMSO (1 μL) was added to columns 11, 12, 23, 24, rows A-H for the maximum signal control, and SAH, a known product and inhibitor of PRC2 (1 μL) was added to columns 11, 12, 23, 24, rows I-P for the minimum signal control. A cocktail (40 μL) containing the wild-type PRC2 enzyme and H3K27me0 peptide or any of the Y641 mutant enzymes and H3K27me2 peptide was added by Multidrop Combi (Thermo). The compounds were allowed to incubate with PRC2 for 30 min at 25° C., then a cocktail (10 μL) containing a mixture of non-radioactive and ^3H-SAM was added to initiate the reaction (final volume=51 μL). […] The assays were stopped by the addition of non-radioactive SAM (10 μL) to a final concentration of 600 μM, which dilutes the ^3H-SAM to a level where its incorporation into the peptide substrate is no longer detectable. 50 μL of the reaction in the 384-well polypropylene plate was then transferred to a 384-well Flashplate and the biotinylated peptides were allowed to bind to the streptavidin surface for at least 1 h before being washed three times with 0.1% Tween20 in a Biotek ELx405 plate washer. The plates were then read in a PerkinElmer TopCount platereader to measure the quantity of ^3H-labeled peptide bound to the Flashplate surface, measured as disintegrations per minute (dpm) or alternatively, referred to as counts per minute (cpm).
Where dpm=disintegrations per minute, cmpd=signal in assay well, and min and max are the respective minimum and maximum signal controls.
Where top and bottom are the normally allowed to float, but may be fixed at 100 or 0 respectively in a 3-parameter fit. The Hill Coefficient normally allowed to float but may also be fixed at 1 in a 3-parameter fit. Y is the % inhibition and X is the compound concentration.

By UniProt entry, the sequences of proteins in these tests, tags left out. Chains listed by the source or under a name are the forms on record and can include a tag or linker.
UniProt Q15910, other isoform, or with tags, fused parts or gaps: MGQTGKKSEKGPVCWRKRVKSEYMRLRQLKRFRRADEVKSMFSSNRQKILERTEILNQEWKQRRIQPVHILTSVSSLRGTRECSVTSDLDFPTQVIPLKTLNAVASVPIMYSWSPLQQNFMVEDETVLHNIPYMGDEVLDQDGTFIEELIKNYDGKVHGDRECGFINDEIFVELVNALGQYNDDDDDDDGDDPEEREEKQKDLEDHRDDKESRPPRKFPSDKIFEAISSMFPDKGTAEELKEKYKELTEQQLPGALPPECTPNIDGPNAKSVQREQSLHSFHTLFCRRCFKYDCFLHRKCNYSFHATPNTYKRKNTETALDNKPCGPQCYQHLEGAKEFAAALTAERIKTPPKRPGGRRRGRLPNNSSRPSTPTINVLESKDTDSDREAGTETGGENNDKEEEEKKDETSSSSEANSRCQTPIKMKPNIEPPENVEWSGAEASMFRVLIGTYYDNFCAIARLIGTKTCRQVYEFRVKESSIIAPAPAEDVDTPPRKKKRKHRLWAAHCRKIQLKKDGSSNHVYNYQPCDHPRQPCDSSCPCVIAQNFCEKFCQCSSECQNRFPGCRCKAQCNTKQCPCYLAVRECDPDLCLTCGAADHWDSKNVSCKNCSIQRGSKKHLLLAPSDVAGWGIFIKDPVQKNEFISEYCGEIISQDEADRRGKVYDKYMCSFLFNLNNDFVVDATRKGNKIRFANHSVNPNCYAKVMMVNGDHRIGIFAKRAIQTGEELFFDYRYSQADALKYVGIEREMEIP

[1] = PRC2 enzyme assays on peptide substrates, 4 nM enzyme, 30 min preincubation at 25° C., read-out: EZH2 IC50

Row | SMILES | IC50 [1] | IC50
1 | Cc1cc(C)c(CNC(=O)c2cc(-c3cccc(CNC4CCCCC4N)c3)nc3c2cnn3C(C)C)c(=O)[nH]1 (stereo not shown) [Compound A-25] | 300 to 1000 nM | 
2 | CNCCN(C)Cc1ccc(-c2cc(C(=O)NCc3c(C)cc(C)[nH]c3=O)c3cnn(C(C)C)c3c2)cc1 [Compound A-40] | 300 to 1000 nM | 
3 | Cc1cc(C)c(CNC(=O)c2cc(Br)cc3c2cnn3C2CCCC2)c(=O)[nH]1 [Compound D-1, 5-bromo-1-cyclopentyl-N-((4,6-dimethyl-2-oxo-1,2-dihydropyridin-3-yl)methyl)-1H-indazole-4-carboxamide] | 300 to 1000 nM | 
4 | Cc1cc(C)c(CNC(=O)c2cc(Br)cc3c2cnn3C2CCOCC2)c(=O)[nH]1 [Compound D-31] |  | 300 to 1000 nM
5 | Cc1cc(C)c(CNC(=O)c2cc(Br)cc3c2cnn3C2CCCC2)c(=O)[nH]1 [Compound D-40] | < 300 nM | 
6 | Cc1cc(C)c(CNC(=O)c2cc(C3=CCN(CCN(C)C)CC3)cc3c2cnn3C2CCCC2)c(=O)[nH]1 [Compound D-56] | 300 to 1000 nM | 

Now from value to molecule, other results behind:

Row | IC50 [1] | SMILES | IC50
7 | 300 to 1000 nM | Cc1cc(C)c(CNC(=O)c2cc(-c3ccc(N4CCN(C)CC4)nc3)nc3c2cnn3C(C)C)c(=O)[nH]1 [Compound A-11, N-((4,6-dimethyl-2-oxo-1,2-dihydropyridin-3-yl)methyl)-1-isopropyl-6-(6-(4-methylpiperazin-1-yl)pyridin-3-yl)-1H-pyrazolo[3,4-b]pyridine-4-carboxamide] | 
8 | 300 to 1000 nM | Cc1cc(C)c(CNC(=O)c2cc(C3CCN(C(=O)C4CCNCC4)CC3)nc3c2cnn3C(C)C)c(=O)[nH]1 [Compound B-42] | 
9 | 300 to 1000 nM | Cc1cc(C)c(CNC(=O)c2cc(C3CCN(C(=O)C4CCN(C)C4)CC3)nc3c2cnn3C(C)C)c(=O)[nH]1 (stereo not shown) [Compound B-43] | 
10 | 300 to 1000 nM | Cc1cc(C)c(CNC(=O)c2cc(C3=CCN(C4CCN(C)CC4)CC3)nc3c2cnn3C(C)C)c(=O)[nH]1 [Compound B-52] | 
11 | 300 to 1000 nM | Cc1cc(C)c(CNC(=O)c2cc(C3=CCN(C(=O)C4CCNC4)CC3)nc3c2cnn3C(C)C)c(=O)[nH]1 (stereo not shown) [Compound B-54] | 
12 | 300 to 1000 nM | Cc1cc(C)c(CNC(=O)c2cc(C3CCN(C(=O)C4CCNC4)CC3)nc3c2cnn3C(C)C)c(=O)[nH]1 (stereo not shown) [Compound B-59] | 
13 | 300 to 1000 nM | Cc1cc(C)c(CNC(=O)c2cc(C3CCN(C4CCN(C)CC4)CC3)nc3c2cnn3C(C)C)c(=O)[nH]1 [Compound B-74] | 

From patent US9637472B2, “Substituted 6,5-fused bicyclic heteroaryl compounds” (Epizyme, Inc., priority 2011, dated 2017)
